# Test results as given in US20100004165A1, “Novel Protein Transduction Domains and Uses Therefor” (The Arizona Board of Regents, a body corporate acting on …, priority 2005, published 2010).
# Assays:
# porcine ear skin [1] = assay: In vitro skin penetration and transdermal delivery, porcine ear skin in Franz diffusion cell, spectrofluorimetry (Example 3)
# Experimental: Fluorescence microscopy was used to visualize the peptides in different skin layers.
# Formulations: Except in the experiments involving chemical penetration enhancers, FITC-labeled peptides were dissolved in phosphate-buffered saline (PBS, 10 mM, pH 7.2); the peptide concentration was 100 μM. In the experiment involving penetration enhancers, PBS could not be used as a solvent because of the lipophilic nature of monoolein and oleic acid. Propylene glycol was used as a solvent, since it solubilizes both lipids and peptides. […] The formulations were prepared by mixing monoolein or oleic acid with propylene glycol and adding the peptides to the system immediately thereafter.
# Porcine ear skin was used as model skin for in vitro skin penetration studies because of its similarity with human skin, especially regarding histological and biochemical properties and permeability to drugs (33). Freshly excised porcine ears were obtained from a local abattoir. The skin from the outer surface of the ear was carefully dissected; making sure that the subcutaneous fat was maximally removed (34). Maximum care was taken to maintain the integrity of the skin, which was assured by histology. The cleaned porcine ear skin was immediately mounted in a Franz diffusion cell (diffusion area of 1 cm^2; Laboratory Glass Apparatus, Inc, Berkeley, Calif., USA), with the stratum corneum facing the donor compartment (where the formulation was applied) and the dermis facing the receptor compartment, which was filled with PBS (100 mM, pH 7.2, 3 mL). The receptor phase was maintained at 37° C. and under constant stirring. To achieve higher reproducibility, the skin samples were equilibrated to the diffusion cell conditions for 30 minutes before application of any formulation.
# PBS solutions or propylene glycol formulations of the peptides (70 μL each) were applied to the skin surface (donor compartment). […] The concentrations of FITC-P20 (SEQ ID NO: 9), FITC-YARA-P20 (SEQ ID NO: 42), and FITC-TAT-P20 (SEQ ID NO: 43) in the skin and receptor phase were determined at 0.5, 1, 2, 4, and 8 hour post-application.
# At the end of the experiment, skin surfaces were thoroughly washed with distilled water to remove excess formulation and carefully wiped with a tissue paper. To separate the stratum corneum (SC) from the remaining epidermis (E) and dermis (D), the skin was subjected to tape stripping. The skin was stripped with 15 pieces of adhesive tape (3M, St. Paul, Minn., USA), and the tapes containing the SC were immersed in 3 mL of a water:methanol (1:1 v/v) solution, vortexed for 2 min, and bath sonicated for 30 minutes. […]
# porcine ear skin [2] = assay: Fluorescence microscopy of skin sections after peptide application; conditions: 4 hours post-application
# From the text: The skin sections (8 μm) were mounted on glass slides. The slides were visualized without any additional staining or treatment through a 20× objective using a Zeiss microscope (Carl Zeiss, Thornwood, N.Y., USA) equipped with a filter for FITC and AxioVision software.
sequence,measurement,setting,value
YKALRISRKLAK [YKAc],influence of propylene glycol on skin penetration compared to PBS,porcine ear skin [1]; 4 hours post-application,did not influence
same,penetration in both SC and [E+D],"porcine ear skin [1]; PBS vehicle, 100 μM, 4 hours post-application",very small
same,"transdermal delivery (peptide in receptor phase), in words","porcine ear skin [1]; PBS vehicle, 4 hours post-application",no peptide was found in the receptor phase
same,increase of penetration in [E+D] on addition of monoolein or oleic acid,"porcine ear skin [1]; propylene glycol, monoolein 10% w/w or oleic acid 5% w/w, 4 h",~2.5 times
same,localisation of fluorescence in skin layers,porcine ear skin [2],predominantly localized in the SC
